Key:
[1] = target: T1, Galanin receptor type 3 (Rattus norvegicus, UniProt O88626)
T1 sequence (O88626 whole entry): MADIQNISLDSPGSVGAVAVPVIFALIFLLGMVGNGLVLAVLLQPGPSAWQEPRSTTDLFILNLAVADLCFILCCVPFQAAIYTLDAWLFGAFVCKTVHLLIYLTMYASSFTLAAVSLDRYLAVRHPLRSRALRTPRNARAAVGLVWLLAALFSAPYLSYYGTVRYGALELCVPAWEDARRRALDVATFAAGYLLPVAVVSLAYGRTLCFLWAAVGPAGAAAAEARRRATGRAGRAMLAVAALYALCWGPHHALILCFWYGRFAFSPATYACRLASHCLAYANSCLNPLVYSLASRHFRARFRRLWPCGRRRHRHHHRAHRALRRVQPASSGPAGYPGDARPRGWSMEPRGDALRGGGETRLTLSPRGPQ

[2] = target: T2, Galanin receptor type 3 (Homo sapiens, UniProt O60755)
T2 sequence (O60755 whole entry): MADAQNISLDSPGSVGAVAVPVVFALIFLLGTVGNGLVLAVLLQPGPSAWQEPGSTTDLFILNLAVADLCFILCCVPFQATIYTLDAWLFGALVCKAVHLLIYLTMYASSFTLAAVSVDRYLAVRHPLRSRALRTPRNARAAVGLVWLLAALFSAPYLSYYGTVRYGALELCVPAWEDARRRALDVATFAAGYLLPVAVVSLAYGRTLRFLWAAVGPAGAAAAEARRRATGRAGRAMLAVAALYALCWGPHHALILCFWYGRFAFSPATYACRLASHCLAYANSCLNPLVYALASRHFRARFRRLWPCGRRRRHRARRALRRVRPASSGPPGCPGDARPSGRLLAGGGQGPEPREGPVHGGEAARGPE

Ki [1] [nM]	SMILES	Ki [2] [nM]
89.1	CC[C@H](C)[C@H](NC(=O)[C@H](C)NC(=O)[C@H](Cc1cnc[nH]1)NC(=O)[C@@H]1CCCN1C(=O)CNC(=O)[C@H](CC(C)C)NC(=O)[C@H](CC(C)C)NC(=O)[C@H](Cc1ccc(O)cc1)NC(=O)CNC(=O)[C@H](C)NC(=O)[C@H](CO)NC(=O)[C@H](CC(N)=O)NC(=O)[C@H](CC(C)C)NC(=O)[C@@H](NC(=O)[C@H](Cc1c[nH]c2ccccc12)NC(=O)CN)[C@@H](C)O)C(=O)O [Galanin (1-16), rat]	
	CC[C@H](C)[C@H](NC(=O)[C@H](C)NC(=O)[C@H](Cc1cnc[nH]1)NC(=O)[C@@H]1CCCN1C(=O)CNC(=O)[C@H](CC(C)C)NC(=O)[C@H](CC(C)C)NC(=O)[C@H](Cc1ccc(O)cc1)NC(=O)CNC(=O)[C@H](C)NC(=O)[C@H](CO)NC(=O)[C@H](CC(N)=O)NC(=O)[C@H](CC(C)C)NC(=O)[C@@H](NC(=O)[C@H](Cc1c[nH]c2ccccc12)NC(=O)CN)[C@@H](C)O)C(=O)N[C@@H](CC(=O)O)C(=O)N[C@@H](CC(N)=O)C(=O)N[C@@H](Cc1cnc[nH]1)C(=O)N[C@@H](CCCN=C(N)N)C(=O)N[C@@H](CO)C(=O)N[C@@H](Cc1ccccc1)C(=O)N[C@@H](Cc1cnc[nH]1)C(=O)N[C@@H](CC(=O)O)C(=O)N[C@@H](CCCCN)C(=O)N[C@@H](Cc1ccc(O)cc1)C(=O)NCC(=O)N[C@@H](CC(C)C)C(=O)N[C@@H](C)C(N)=O [Galanin, Porcine]	9.77
	CC[C@H](C)[C@H](NC(=O)[C@H](C)NC(=O)[C@H](Cc1c[nH]cn1)NC(=O)[C@@H]1CCCN1C(=O)CNC(=O)[C@H](CC(C)C)NC(=O)[C@H](CC(C)C)NC(=O)[C@H](Cc1ccc(O)cc1)NC(=O)CNC(=O)[C@H](C)NC(=O)[C@H](CO)NC(=O)[C@H](CC(N)=O)NC(=O)[C@H](CC(C)C)NC(=O)[C@@H](NC(=O)[C@@H](Cc1c[nH]c2ccccc12)NC(=O)CN)[C@@H](C)O)C(=O)N[C@@H](CC(=O)O)C(=O)N[C@@H](CC(N)=O)C(=O)N[C@@H](Cc1c[nH]cn1)C(=O)N[C@@H](CCCNC(=N)N)C(=O)N[C@@H](CO)C(=O)N[C@@H](Cc1ccccc1)C(=O)N[C@@H](Cc1c[nH]cn1)C(=O)N[C@@H](CC(=O)O)C(=O)N[C@@H](CCCCN)C(=O)N[C@@H](Cc1ccc(O)cc1)C(=O)NCC(=O)N[C@@H](CC(C)C)C(=O)N[C@@H](C)C(N)=O [Galanin [D-Trp2], porcine]	1000
